25 compounds from PubChem BioAssay AID720711 (National Center for Advancing Translational Sciences (NCATS), 2013) can be followed below.

Chains of the proteins cited; added tags and fusions are not shown.
UniProt Q8WZA2, whole entry: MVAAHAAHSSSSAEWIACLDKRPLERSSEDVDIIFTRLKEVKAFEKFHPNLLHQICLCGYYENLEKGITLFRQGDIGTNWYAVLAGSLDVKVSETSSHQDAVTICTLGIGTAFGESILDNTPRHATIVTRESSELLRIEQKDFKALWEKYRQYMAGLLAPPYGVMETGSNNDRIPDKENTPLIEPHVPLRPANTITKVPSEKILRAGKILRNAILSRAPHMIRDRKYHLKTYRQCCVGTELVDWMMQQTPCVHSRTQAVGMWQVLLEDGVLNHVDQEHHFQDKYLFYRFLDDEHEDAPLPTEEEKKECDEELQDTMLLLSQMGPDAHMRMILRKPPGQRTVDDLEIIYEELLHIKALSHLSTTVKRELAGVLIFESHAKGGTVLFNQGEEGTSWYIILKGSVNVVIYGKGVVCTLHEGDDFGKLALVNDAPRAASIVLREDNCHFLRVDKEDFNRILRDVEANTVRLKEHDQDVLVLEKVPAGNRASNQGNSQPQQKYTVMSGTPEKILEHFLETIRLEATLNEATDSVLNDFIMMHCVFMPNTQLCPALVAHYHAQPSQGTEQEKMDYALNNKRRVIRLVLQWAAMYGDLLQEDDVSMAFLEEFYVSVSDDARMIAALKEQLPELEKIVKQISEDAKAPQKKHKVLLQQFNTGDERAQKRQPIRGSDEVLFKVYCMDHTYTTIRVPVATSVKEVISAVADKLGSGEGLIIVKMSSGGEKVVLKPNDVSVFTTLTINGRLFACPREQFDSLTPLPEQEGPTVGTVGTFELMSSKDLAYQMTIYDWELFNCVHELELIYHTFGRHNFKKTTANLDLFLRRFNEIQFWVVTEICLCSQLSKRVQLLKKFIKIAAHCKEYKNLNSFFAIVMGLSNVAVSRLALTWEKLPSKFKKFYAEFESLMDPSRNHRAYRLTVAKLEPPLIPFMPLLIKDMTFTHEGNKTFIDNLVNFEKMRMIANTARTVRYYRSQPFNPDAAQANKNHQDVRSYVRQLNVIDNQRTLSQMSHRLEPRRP

Molecules are shown by their SMILES. This is a selection; strong and weak results do not stand in their true shares. Some tests of the compounds listed are not included; inactive here does not mean inactive elsewhere. Activity calls are given as the source filed them. The call rests on the fitted dose curve; in most records, active means well fitted activation curve with a large enough effect; inconclusive means small, poorly fitted or top-dose-only effect; inactive means no such curve, though single readings can be large or run the other way.

The experiment deals with Rap guanine nucleotide exchange factor 4 (Homo sapiens) (UniProt Q8WZA2). Kind of experiment: qHTS for Agonist of cAMP-regulated guanine nucleotide exchange factor 4 (EPAC2): primary screen. Further: nearly all actives have a fitted effect of over 50% in size. The following applies: biochemical qHTS, 100% = 6.5 mM cAMP response; at 154 µM (top of the series). From the text: In multi-cellular eukaryotic organisms, the effects of cAMP are transduced by two ubiquitously-expressed intracellular cAMP receptors, the classic protein kinase A/cAMP-dependent protein kinase (PKA/cAPK) and the more recently discovered exchange protein directly activated by cAMP/cAMP-regulated guanine nucleotide exchange factor (EPAC/cAMP-GEF). Both PKA and EPAC are ubiquitously expressed in all tissues, and an increase in intracellular cAMP levels will lead to the activation of both PKA and EPAC. Therefore, careful dissections of the individual role and relative contribution of EPAC and PKA within the overall cAMP signaling in various model systems are critical for further elucidating the mechanism of cAMP signaling. To date no EPAC-specific antagonists and agonist, as well as isoform-specific agonists have been reported, and developing EPAC-specific pharmacological probes to determine the physiological functions that EPAC play in the overall cAMP-mediated signaling remains a major challenge within the research field. Furthermore, identified regulators of EPAC may lead to new mechanism-based therapeutic strategies specifically targeting the EPAC / cAMP-signaling components as EPAC has been implicated to play important roles in major human pathological conditions such as diabetes, heart disease, and cancer.
This qHTS will be used to screen the Molecular Libraries Small Molecule Repository (MLSMR) as a concentration-titration series using the NCGC unique quantitative screening (qHTS) platform to find activators for EPAC2. In addition, this assay will also be used as a counterscreen for the EPAC1 qHTS. This fluorescent based assay is developed and validated for EPAC2 that measures exchange using EPAC effector Rap1 complex with BODIPY-GDP, a GDP analog with a tethered fluorophores. Activators are identified by monitoring the change in fluorescence signal as the exchanged free BODIPY-GDP has a reduced fluorescence compared to Rap1-bound BODIPY-GDP. […] in signal (activation) is the desired outcome for the EPAC2 agonist while no activity in this assay is desired for the EPAC1 agonist counterscreen.
[1] de Rooij, J., Zwartkruis, F. J., Verheijen, M. H., Cool, R. H., Nijman, S. M., Wittinghofer, A., and Bos, J.L. (1998) Nature 396, 474-477
[2] Kawasaki, H., Springett, G. M., Mochizuki, N., Toki, S., Nakaya, M., Matsuda, M., Housman, D. E., and Graybiel, A. M. (1998) Science 282, 2275-2279
NIH Chemical Genomics Center [NCGC]
NIH Molecular Libraries Probe Centers Network [MLPCN]
Assay Submitter (PI): Xiaodong Cheng, The University of Texas, Medical Branch
Briefly, three uL of reagents (100 nM EPAC2, 250 nM RAP1B-BODIPY-GDP, 50 uM GDP) were dispensed into a 1536-well Greiner black solid-bottom medium binding assay plate. Controls and test compounds (23 nL) were transferred to the plate via a Kalypsys pin tool equipped with a 1536-pin array. The plates were centrifuged at 1,000 rpm for 15 seconds followed by 5 minute incubation at room temperature. The assay plates were read at 5 minute intervals for 30 minutes in the ViewLux plate reader using 480nm excitation and 540nm emission filters. The results were normalized to the agonist positive control of 6.5 mM cAMP.
A general note: qHTS replaces the single test concentration by a dilution series.
For the compound `Cc1ccccc1C(=O)NCC1(N2CCCCC2)CCCCC1`, the activation is inactive: 9.7%.
The same measure for `CN(C)c1ccc(C(=O)NCC2(N(C)C)CCCCC2)cc1`: inactive: -8.38%; for `CN(C)C1CCCC1OC(=O)C(O)(c1ccccc1)c1ccccc1` (stereo not given): inactive: -7.22%; for `C=CCN1CCN(CCOC(=O)C(O)(c2ccccc2)c2ccccc2)CC1`: inactive: -7.94%.
As for `O=C(NCC1(N2CCCCC2)CCCCC1)c1cc(F)c(F)cc1Cl`, the activation is inactive: 11.2%.
Consider `COc1ccc(C(=O)NCC2(N(C)C)CCCCC2)cc1`, for which the activation is inactive: 5.75%.
For `CCN1CCCC(OC(=O)C2(O)c3ccccc3C=Cc3ccccc32)C1` (stereo not given), the activation is inactive: -6.36%.
In the case of `Cc1cc(C(=O)NCC2(N3CCCCC3)CCCCC2)ccc1[N+](=O)[O-]`, the activation was inactive: 3.62%.
Consider `O=C(NCC1(N2CCCCC2)CCCCC1)c1cccc(Br)c1`, for which the activation is inactive: 9.61%.
For `O=C(NCC1(N2CCCCC2)CCCCC1)c1cc([N+](=O)[O-])ccc1Cl`, the activation was inactive: -3.27%.
The same measure for `CN1[C@@H]2CC[C@H]1CC(OC(=O)C(O)(c1ccccc1)c1ccccc1)C2` (stereo not given in full): inactive: 3.09%; for `CCN(CC)CC(C)C(C)OC(=O)C(O)(c1ccccc1)c1ccccc1` (stereo not given): inactive: -2.09%; for `COc1cc(SC)ccc1C(=O)NCC1(N(C)C)CCCCC1`: inactive: 5.02%.
For `CC(C)N1C(=O)CC2(CCN(CCOC(=O)C(O)(c3ccccc3)c3ccccc3)CC2)C1=O`, the activation was inactive: -8.83%.
Regarding `Cc1ccc(C(=O)NCC2(N3CCCCC3)CCCCC2)cc1`, the activation was inactive: 1.37%.
Turning to `C=C(C)C#CC(O)(C(=O)OC1CCN(C)CC1)c1ccccc1` (stereo not given), the activation was inactive: 6.51%.
`COc1ccc(Br)c(C(=O)NCC2(N3CCCCC3)CCCCC2)c1`: the activation was inactive: 3.69%.
The value for `CC(C)Oc1ccc(C(=O)NCC2(N(C)C)CCCCC2)cc1` was inactive: 7.83%; that for `O=C(OCCN1CCCC1)C(O)(c1ccccc1)c1ccccc1` was inactive: 5.02%.
The value for `CN(C)c1cccc(C(=O)NCC2(N(C)C)CCCCC2)c1` was inactive: 4.65%; that for `CN(C)C1(CNC(=O)c2ccc(Br)cc2)CCCCC1` was inactive: 11.7%; that for `COc1cc(C(=O)NCC2(N(C)C)CCCCC2)c([N+](=O)[O-])cc1OC` was inactive: 6.68%.
In the case of `COc1cccc(C(=O)NCC2(N3CCCCC3)CCCCC2)c1`, the activation is inactive: 0.111%.
Take `COc1ccc(Cl)cc1C(=O)NCC1(N(C)C)CCCCC1`: the activation was inactive: 9.83%.
For `O=C(NCC1(N2CCCCC2)CCCCC1)c1cccc(Cl)c1`, the activation is inactive: 12.2%.
